The target in the test is Histamine H3 receptor (Rattus norvegicus, UniProt Q9QYN8). The test is described as follows: Histamine H3 receptor affinity of compound was determined in rat cortical membranes using the H3 selective agonist ligand, [3H]N-alpha-methylhistamine. Format: cell membranes, Membrane.

The chains behind the UniProt entries cited, without tags or fusion partners. Where a name states a change or a piece, a line headed by the entry shows the natural chain unless it says otherwise.
UniProt Q9QYN8: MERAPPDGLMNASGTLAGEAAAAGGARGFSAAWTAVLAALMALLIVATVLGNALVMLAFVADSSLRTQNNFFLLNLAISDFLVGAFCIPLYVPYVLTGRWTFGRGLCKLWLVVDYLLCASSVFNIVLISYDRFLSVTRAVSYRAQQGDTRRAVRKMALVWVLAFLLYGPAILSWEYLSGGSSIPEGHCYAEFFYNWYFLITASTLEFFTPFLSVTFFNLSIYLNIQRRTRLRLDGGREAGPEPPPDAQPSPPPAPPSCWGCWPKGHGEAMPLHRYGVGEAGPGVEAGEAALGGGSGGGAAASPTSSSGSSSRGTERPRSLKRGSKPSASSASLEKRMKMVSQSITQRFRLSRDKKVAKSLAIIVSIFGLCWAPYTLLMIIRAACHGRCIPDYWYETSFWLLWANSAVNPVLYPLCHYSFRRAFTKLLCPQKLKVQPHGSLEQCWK

In general, Ki refers to the equilibrium dissociation constant of an inhibitor or competing ligand from its target. The low end stands for tighter binding, the high end for weaker binding. `O=C(CCCCC1CCCCC1)N1CCC(c2c[nH]cn2)CC1` [GT-2016] gave a Ki of 40 nM.

The values above are taken from ChEMBL document CHEMBL1129806, “Diastereoselective synthesis of trans-2-(1-triphenylmethyl-1H-imidazol-4-yl)cyclopropanecarboxylic acids: key intermediates for the preparation of potent and chiral histamine H3 receptor agents” (Bioorg Med Chem Lett, 1997).
